By Ki is commonly meant the equilibrium dissociation constant of an inhibitor or competing ligand from its target. Lower therefore signals higher affinity.

Amino acid sequences for entries named in this document (tags omitted). A change or cut given only in a name is not applied to a line headed by its entry.
UniProt O15439: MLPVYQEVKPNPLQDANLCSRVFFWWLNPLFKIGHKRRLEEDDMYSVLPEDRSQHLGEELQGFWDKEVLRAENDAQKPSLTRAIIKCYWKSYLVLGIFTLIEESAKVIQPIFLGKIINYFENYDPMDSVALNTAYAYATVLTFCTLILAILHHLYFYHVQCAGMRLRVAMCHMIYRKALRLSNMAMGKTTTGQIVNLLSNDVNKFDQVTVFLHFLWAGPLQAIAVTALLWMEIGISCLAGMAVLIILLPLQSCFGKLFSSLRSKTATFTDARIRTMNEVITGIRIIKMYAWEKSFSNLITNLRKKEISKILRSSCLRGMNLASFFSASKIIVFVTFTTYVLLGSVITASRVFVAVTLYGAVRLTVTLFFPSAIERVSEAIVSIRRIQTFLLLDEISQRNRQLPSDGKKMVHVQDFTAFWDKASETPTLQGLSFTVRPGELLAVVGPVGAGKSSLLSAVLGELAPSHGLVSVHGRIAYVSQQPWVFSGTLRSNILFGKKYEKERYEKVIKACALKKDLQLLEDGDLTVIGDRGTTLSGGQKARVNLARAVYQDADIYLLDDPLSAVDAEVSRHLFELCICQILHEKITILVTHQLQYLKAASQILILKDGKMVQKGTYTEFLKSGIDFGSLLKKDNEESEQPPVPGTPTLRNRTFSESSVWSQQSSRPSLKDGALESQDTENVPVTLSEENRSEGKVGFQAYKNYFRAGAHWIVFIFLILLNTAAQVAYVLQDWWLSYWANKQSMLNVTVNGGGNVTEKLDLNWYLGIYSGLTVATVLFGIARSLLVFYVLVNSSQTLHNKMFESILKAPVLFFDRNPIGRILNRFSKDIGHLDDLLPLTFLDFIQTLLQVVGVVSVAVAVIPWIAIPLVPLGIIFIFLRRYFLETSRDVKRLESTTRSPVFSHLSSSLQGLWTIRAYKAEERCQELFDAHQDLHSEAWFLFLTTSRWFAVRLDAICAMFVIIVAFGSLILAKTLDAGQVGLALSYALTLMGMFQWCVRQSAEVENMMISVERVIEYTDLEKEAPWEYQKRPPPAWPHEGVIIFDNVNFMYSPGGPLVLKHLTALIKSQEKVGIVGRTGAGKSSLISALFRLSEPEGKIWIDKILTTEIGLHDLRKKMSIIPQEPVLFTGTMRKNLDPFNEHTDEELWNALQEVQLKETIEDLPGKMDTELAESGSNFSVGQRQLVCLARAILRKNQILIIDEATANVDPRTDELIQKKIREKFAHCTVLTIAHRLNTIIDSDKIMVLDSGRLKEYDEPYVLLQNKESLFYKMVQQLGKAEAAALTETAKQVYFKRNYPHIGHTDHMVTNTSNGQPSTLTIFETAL

For this assay, the target named is ABCC4 (Homo sapiens, UniProt O15439).

The molecule `CN(C)C(=O)CCSC(SCCC(=O)O)c1cccc(/C=C/c2ccc3ccc(Cl)cc3n2)c1` (stereo not shown) [MK571] registered a Ki of 9.8 µM.

Values taken from US20100113370A1, “METHODS AND COMPOUNDS FOR MODULATING INFLAMMATORY PROCESSES” (priority 2007, published 2010).
